Test results as given in article PMC11040377.

Chains of the proteins cited; added tags and fusions are not shown. Residues count along the entry.
UniProt Q61790, 24-521: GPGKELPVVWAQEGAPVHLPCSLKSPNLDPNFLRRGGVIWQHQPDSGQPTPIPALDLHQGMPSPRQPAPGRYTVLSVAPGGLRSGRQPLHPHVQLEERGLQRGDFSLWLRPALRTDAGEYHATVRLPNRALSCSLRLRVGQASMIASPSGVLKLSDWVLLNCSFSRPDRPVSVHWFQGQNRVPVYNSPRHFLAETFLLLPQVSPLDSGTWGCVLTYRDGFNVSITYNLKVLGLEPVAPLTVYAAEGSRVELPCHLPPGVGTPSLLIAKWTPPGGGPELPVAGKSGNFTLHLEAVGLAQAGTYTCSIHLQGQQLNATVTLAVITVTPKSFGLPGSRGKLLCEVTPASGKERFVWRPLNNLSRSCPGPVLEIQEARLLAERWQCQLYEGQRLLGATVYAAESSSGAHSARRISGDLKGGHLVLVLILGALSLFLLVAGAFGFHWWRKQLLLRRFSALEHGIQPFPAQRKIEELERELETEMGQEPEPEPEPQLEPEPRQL

Columns and labels:
[1] = molecular target: neuronal Lag3, endogenous on mouse primary cortical neurons (mouse (endogenous in primary cortical neurons)) (UniProt Q61790); experiment: cell surface binding assay (streptavidin-alkaline phosphatase staining); mouse primary cortical neurons, WT and Lag3-/-; Tau-biotin PFF at different concentrations; specific binding to Lag3 by subtracting the binding to Lag3-/- neurons from that to WT neurons
[2] = molecular target: Lag3 (lymphocyte-activation gene 3), on transfected SH-SY5Y cells (not stated (human or mouse cDNA cloned)) (UniProt Q61790); experiment: cell surface binding assay (streptavidin-alkaline phosphatase staining); SH-SY5Y cells transfected with Lag3 or its deletion mutants; biotin-labelled ligand at different concentrations (monomer equivalent) in DMEM with 10% FBS, 2 h at RT; washed, fixed, bound biotin detected with streptavidin-AP and BCIP/NBT; intensity by ImageJ, KD by GraphPad Prism

Kd [1]: 100 nM | Kd [2]: 158 nM
Substance: Tau-biotin PFF (AD-Tau-induced Tau preformed fibrils, biotin-labelled) (from UniProt P10636-8 1-441)
